Data reported in patent US12692262B2, “Substituted ureas as orexin receptor agonists” (Merck Sharp & Dohme LLC, priority 2020, dated 2026).

Protein sequences, listed by entry. Tags and fused reporters are not part of them.
UniProt O43614, whole entry: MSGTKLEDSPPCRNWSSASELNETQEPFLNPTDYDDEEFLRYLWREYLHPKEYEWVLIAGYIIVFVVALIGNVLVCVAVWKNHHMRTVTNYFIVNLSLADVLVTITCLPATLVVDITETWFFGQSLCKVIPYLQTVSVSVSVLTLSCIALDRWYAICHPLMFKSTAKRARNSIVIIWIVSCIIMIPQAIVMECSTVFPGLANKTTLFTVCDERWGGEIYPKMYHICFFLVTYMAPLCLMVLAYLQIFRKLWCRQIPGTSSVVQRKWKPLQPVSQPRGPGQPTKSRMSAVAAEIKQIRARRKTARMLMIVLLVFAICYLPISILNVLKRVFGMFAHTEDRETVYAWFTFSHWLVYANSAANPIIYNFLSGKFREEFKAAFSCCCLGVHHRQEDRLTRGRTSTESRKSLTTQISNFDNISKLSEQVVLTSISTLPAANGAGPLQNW

Target: human OX2R (Homo sapiens, UniProt O43614)
Experiment: IPOne (IP-1 accumulation) assay in CHO cells expressing human OX2R
Assay type: cell-based
Conditions: read-out: OX2R Potency, EC50, IP-One assay, 2 h incubation, four parameter logistic fit

CC[C@H](CCC(F)(F)F)NC(=O)N(CC)Cc1cc(-c2ccc3nccn3c2)c(OC)cc1OC was tested, and the EC50 was 341 nM.
